## Boiling point values, as collected for the OPERA models

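These are experimental values that the OPERA curators gathered from public databases to train and test their QSAR models. The files give a single number for a compound and property, which may rest on several reports. Method, purity and exact conditions of the single measurements are not given. The measured form (salt, isomer or mixture) is not always the one drawn. Some entries may be limits or estimates that an upstream database listed as plain numbers.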

Boiling points are in °C, nominally at 760 mmHg. Cells with "n/a" have no entry in this list.

SMILES	name	boiling point (°C)
O=C(O)C(F)(F)C(F)(F)C(F)(F)C(F)(F)C(F)(F)C(F)(F)C(F)(C(F)(F)F)C(F)(F)F	n/a	218
N#CC(F)(F)C(F)(F)C(F)(F)C(F)(F)C(F)(F)F	Undecafluorohexanenitrile	53
CCOC(C=C(C)CCC=C(C)C)OCC	Citral diethyl acetal	230
Cn1c(=O)c2c(ncn2C)n(C)c1=O	Caffeine	178
CC(C)C(O)c1ccccc1 (configuration not stated)	2-Methyl-1-phenylpropan-1-ol	223
O=C=Nc1ccc(Cl)c(Cl)c1	3,4-Dichlorophenyl isocyanate	228
CCOC(=O)/C=C/C(C)C	Ethyl (2E)-4-methyl-2-pentenoate	178
CCN(CC)C(=O)CC(C)=O	N,N-diethyl-3-oxobutyramide	163.2
CC(C)CC(=O)N1CCCC(CO)C1 (configuration not stated)	1-[3-(Hydroxymethyl)-1-piperidinyl]-3-methyl-1-butanone	326
COc1ccccc1C(=O)O	Benzoic acid, 2-methoxy-	200.7
COCC=O	2-Methoxyacetaldehyde	92
C1CC2OC2C1OC1CCC2OC12 (configuration not stated)	6-Oxabicyclo[3.1.0]hexane, 2,2'-oxybis-	203
CCC(=O)/C=C/C1=C(C)CCCC1(C)C	(E)-1-(2,6,6-Trimethyl-1-cyclohexen-1-yl)pent-1-en-3-one	281
FC(F)(F)C(F)(F)C1(F)OC(F)(F)C(F)(F)C1(F)F (configuration not stated)	Perfluoro-5-(pentafluoroethyl)oxolane	56
CC1(C)C2CC3C1C3(C)C2 (configuration not stated)	1,3,3-Trimethyltricyclo(2.2.1.02,6)heptane	145
C1COCCNN1	Hexahydro-1,4,5-oxadiazepine	174.5
CCCCCCCCCCCCCCCC[Si](OC)(OC)OC	Silane, hexadecyltrimethoxy-	351.1
O=C(O)CO	Glycolic acid	169
CC(=O)OCC(Br)(Br)Br	2,2,2-Tribromoethyl acetate	225
CCOC(=S)C(=S)OCC	n/a	235
CN(C)[Si](C)(CCC(F)(F)C(F)(F)C(F)(F)C(F)(F)C(F)(F)C(F)(F)C(F)(F)C(F)(F)F)N(C)C	n/a	74
CC(=CC(C)C)C(C)O (configuration not stated)	3,5-Dimethylhex-3-en-2-ol	167
Cc1ccc(Nc2ccc(Nc3ccc(C)cc3)c3c2C(=O)c2ccccc2C3=O)cc1	D & C Green No. 6	489
C=CCOC(=O)OCCOCCOC(=O)OCC=C	Diallyl diglycol carbonate	362.9
CCC(O)CN(CC(O)CC)CC(O)CC (configuration not stated)	1,1',1''-Nitrilotri(butan-2-ol)	310
CCCCCC(=O)c1ccc(O)cc1O	1-(2,4-Dihydroxyphenyl)hexan-1-one	343
C=C(F)C(F)(F)C(F)(F)F	1H,1H-Perfluorobutene	5
CCCCOC(=O)[C@H](O)[C@@H](O)C(=O)OCCCC	(2R,3R)-Dibutyl tartrate	320
CCCCC(CC)COC(=O)/C=C/c1ccc(OC)cc1 (stereo partly drawn)	2-Ethylhexyl trans-4-methoxycinnamate	382
Cc1cc(Cc2cc(C)c(O)c(C)c2)cc(C)c1O	Phenol, 4,4'-methylenebis[2,6-dimethyl-	240
FC1(F)C(F)(F)C(F)(F)[C@]2(F)C(F)(F)C(F)(F)C(F)(F)[C@]2(F)C1(F)F	cis-Perfluorohydrindan	118
C=C(C)c1cccc(C(C)(C)N=C=O)c1	1-(2-Isocyanatopropan-2-yl)-3-(prop-1-en-2-yl)benzene	270
O=C(O)/C=C\C(=O)O	Maleic acid	138
O=C(O)C(F)(F)C(F)(F)C(F)(C(F)(F)F)C(F)(F)F	2,2,3,3,4,5,5,5-octafluoro-4-(trifluoromethyl)pentanoic acid	157

Extract of 2 entries:

| SMILES | name | boiling point (°C) |
|---|---|---|
| FC(F)(F)C(F)(F)C1(F)OC(F)(F)C(F)(F)C1(F)F (configuration not stated) | Perfluoro-5-(pentafluoroethyl)oxolane | 56 |
| CC1(C)C2CC3C1C3(C)C2 (configuration not stated) | 1,3,3-Trimethyltricyclo(2.2.1.02,6)heptane | 145 |

Values as listed in the OPERA 2.9 repository of K. Mansouri.